ChEMBL document CHEMBL5226324, “Exploring Translocator Protein (TSPO) Medicinal Chemistry: An Approach for Targeting Radionuclides and Boron Atoms to Mitochondria” (J Med Chem, 2021)

Chains of the proteins cited; added tags and fusions are not shown.
UniProt P30536, whole entry: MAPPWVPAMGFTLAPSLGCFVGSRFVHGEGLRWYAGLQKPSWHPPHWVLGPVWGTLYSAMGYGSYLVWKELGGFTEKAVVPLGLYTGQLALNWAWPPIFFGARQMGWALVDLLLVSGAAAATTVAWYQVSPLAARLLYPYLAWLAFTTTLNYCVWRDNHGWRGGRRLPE

Target: Translocator protein (Homo sapiens, UniProt P30536)
Assay: Binding affinity to human TSPO

- Kd: 2 nM
Compound: CC[C@@H](C)N([11CH3])C(=O)c1cc2ccccc2c(-c2ccccc2Cl)n1
